The data set can be described thus: physchem. Conditions: 25 °C, water, thermodynamic from solid.

Values after ≈ are worked out from the molar mass of the structure shown.

The solubility is how much of the substance goes into solution per volume.

In turn, `COc1ccccc1OCCNCC(O)COc1cccc2[nH]c3ccccc3c12` (stereo not shown) [Carvedilol] registered a solubility at 0.5 hr of 5 µg/mL (≈ 12.3 µM).

The values above are taken from patent publication US6515010B1, “Carvedilol methanesulfonate” (SmithKline Beecham Corporation, priority 1999, dated 2003).
